Results on 22 compounds are retold here after PubChem BioAssay AID1463 (National Center for Advancing Translational Sciences (NCATS), 2008).

The entries are a selection whose mix differs from that of the whole data set. Some results for these compounds are left out of this collection, so the calls shown say nothing about other tests. Records with an inconclusive call do not appear. The source made the active and inactive calls. Calls follow the shape of the dose curve; as a rule, active = well fitted curve in the direction sought with a large enough effect; inconclusive = small, poorly fitted or top-dose-only effect; inactive = flat fitted curve, though single readings scatter.
% is scaled to controls: 0 for no effect and ±100 for the full control effect.

This assay can be described thus: Counterscreen qHTS for Inhibitors of Tau Fibril Formation, Fluorescence Polarization. Also: nearly all actives have a fitted effect of over 55% in size. The note with it: tau K18 P301L (four-repeat tau fragment) Alexa594 fluorescence, heparin fibrillization; at 57.7 µM (top of the series). (In general: A counterscreen serves to expose hits that act by an unwanted route or on another target.)
With `O=C(NCC1(N2CCCCC2)CCCCC1)c1cc([N+](=O)[O-])ccc1Cl`, the activity change, negative = decrease is inactive: -9.26%.

On to `CN(C)C1(CNC(=O)c2ccccc2F)CCCCC1`, for which the activity change, negative = decrease was inactive: 0.725%.

As to `CC(C)N1C(=O)CC2(CCN(CCOC(=O)C(O)(c3ccccc3)c3ccccc3)CC2)C1=O`, the activity change, negative = decrease is inactive: -2.01%.

Take `CN(C)C1(CNC(=O)c2cccc(Cl)c2)CCCCC1`: the activity change, negative = decrease is inactive: -4.15%.

For `CCN(CC)CC(C)C(C)OC(=O)C(O)(c1ccccc1)c1ccccc1` (configuration not stated), the activity change, negative = decrease is inactive: 0.195%.

For the compound `CCCCOc1ccccc1C(=O)NCC1(N(C)C)CCCCC1`, the activity change, negative = decrease is inactive: -4.42%.

In the case of `CN(C)C1CCCC1OC(=O)C(O)(c1ccccc1)c1ccccc1` (configuration not stated), the activity change, negative = decrease is inactive: 2.51%.

In the case of `CN(C)C1(CNC(=O)c2ccccc2[N+](=O)[O-])CCCCC1`, the activity change, negative = decrease is inactive: -12.4%.

For `Cc1ccccc1C(=O)NCC1(N2CCCCC2)CCCCC1`, the activity change, negative = decrease was inactive: 9.95%.

As to `CCN1CCCC(OC(=O)C2(O)c3ccccc3C=Cc3ccccc32)C1` (configuration not stated), the activity change, negative = decrease is inactive: 6.54%.

Turning to `CCOc1cccc(C(=O)NCC2(N(C)C)CCCCC2)c1`, the activity change, negative = decrease is inactive: 10.3%.

Turning to `C=CCN1CCN(CCOC(=O)C(O)(c2ccccc2)c2ccccc2)CC1`, the activity change, negative = decrease was inactive: -1.75%.

Consider `COc1ccc(C(=O)NCC2(N(C)C)CCCCC2)cc1Cl`, for which the activity change, negative = decrease was inactive: 5.68%.

With `COc1cccc(C(=O)NCC2(N3CCCCC3)CCCCC2)c1`, the activity change, negative = decrease was inactive: 2.86%.

As for `CC(C)COc1ccc(C(=O)NCC2(N(C)C)CCCCC2)cc1`, the activity change, negative = decrease was inactive: -4.4%.

As to `O=C(OC1CN2CCC1CC2)C(CO)(c1ccccc1)c1ccccc1` (configuration not stated), the activity change, negative = decrease is inactive: 2.1%.

With `COc1cccc(C(=O)NCC2(N3CCOCC3)CCCCC2)c1`, the activity change, negative = decrease is inactive: -11.2%.

Turning to `CN(C)c1cccc(C(=O)NCC2(N(C)C)CCCCC2)c1`, the activity change, negative = decrease was inactive: -2.08%.

As to `CC(C)Oc1ccc(C(=O)NCC2(N(C)C)CCCCC2)cc1`, the activity change, negative = decrease is inactive: 2.56%.

Take `COc1ccc(Br)c(C(=O)NCC2(N3CCCCC3)CCCCC2)c1`: the activity change, negative = decrease is inactive: -2.2%.

With `COc1cc(C(=O)NCC2(N(C)C)CCCCC2)cc(OC)c1OC`, the activity change, negative = decrease was inactive: 2.9%.

`Cc1cccc(C(=O)NCC2(N(C)C)CCCCC2)c1`: the activity change, negative = decrease was inactive: 5.4%.
